In patent US10829561B2, “Antibodies targeting quiescin sulfhydryl oxidase (QSOX1) and uses of same” (Yeda Research and Development Co. Ltd., priority 2015, dated 2020):

Columns and labels:
MmQSOX1 Trx module = target: T1, MmQSOX1 Trx module (Mus musculus, UniProt Q8BND5); experiment: Analytical size-exclusion chromatography of antibody-antigen complexes; format: binding; settings: Superdex 200, PBS
T1 construct: MmQSOX1Trx and MmQSOX1Erv span residues 36-275 and 289-550, respectively, of Mus musculus QSOX1; made in house; host or cells: E. coli BL21 (DE3)
T1 sequence (Q8BND5 36-275): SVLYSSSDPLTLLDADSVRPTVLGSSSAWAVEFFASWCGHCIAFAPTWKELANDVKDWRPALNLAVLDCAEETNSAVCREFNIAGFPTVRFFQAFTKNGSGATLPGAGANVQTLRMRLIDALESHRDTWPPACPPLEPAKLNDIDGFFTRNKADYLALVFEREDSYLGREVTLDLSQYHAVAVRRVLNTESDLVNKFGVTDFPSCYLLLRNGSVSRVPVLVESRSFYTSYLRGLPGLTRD
Method: (§1) MsQSOX1, its fragments, MAb316.1, or MAb947.3 were loaded onto a Superdex 200 column (GE HealthCare) equilibrated with phosphate buffered saline (PBS) at a flow rate of 0.8 mL/min. MsQSOX1-antibody complexes were injected after a 30 min co-incubation at 4° C. Elution of proteins was monitored by absorbance at 280 nm.
(§2) MAb492.1 and MAb492gen bind the N-terminal QSOX1 Trx domain. Since MAb316.1 was generated in mice injected with full-length MmQSOX1, inventors sought to localize its epitope. Size exclusion chromatography was used to compare the elution profiles of MmQSOX1, or each of its constituent modules, to their elution profiles when mixed with MAb316.1. […] In contrast, migration of the MmQSOX1 Erv module, responsible for the sulfihydryl oxidase activity, was not affected, pointing at the Trx module as the MAb316.1 binding region in MmQSOX1.

full-length MmQSOX1 = target: T2, full-length MmQSOX1 (Mus musculus, UniProt Q8BND5); experiment: as above; format: binding; settings: Superdex 200, PBS
T2 construct: Recombinant MmQSOX1 is truncated at the carboxy-terminus and so migrates faster than endogenous secreted MmQSOX1; made in house
T2 sequence (Q8BND5 36-550 limits assumed): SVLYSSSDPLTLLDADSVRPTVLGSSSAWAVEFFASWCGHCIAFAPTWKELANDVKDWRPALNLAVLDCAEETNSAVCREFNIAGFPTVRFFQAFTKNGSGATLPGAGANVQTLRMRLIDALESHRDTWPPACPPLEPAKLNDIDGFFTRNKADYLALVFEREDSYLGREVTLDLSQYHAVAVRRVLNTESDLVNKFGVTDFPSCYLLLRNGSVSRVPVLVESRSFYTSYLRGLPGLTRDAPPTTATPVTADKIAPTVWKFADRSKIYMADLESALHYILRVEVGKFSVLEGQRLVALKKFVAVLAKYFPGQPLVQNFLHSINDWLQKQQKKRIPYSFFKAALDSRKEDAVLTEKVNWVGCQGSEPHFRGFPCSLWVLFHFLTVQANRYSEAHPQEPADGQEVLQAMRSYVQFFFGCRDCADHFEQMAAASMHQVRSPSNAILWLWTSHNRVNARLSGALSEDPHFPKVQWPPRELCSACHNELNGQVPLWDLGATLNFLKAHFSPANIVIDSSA
Method: as §1, §2

HsQSOX1 = target: T3, HsQSOX1 (Homo sapiens, UniProt O00391); settings: previously measured, Grossman I. et al. (2013); read-out: Inhibition constant (Ki), HsQSOX1, previously measured; cited from earlier work
T3 construct: made in house
T3 sequence (O00391 33-546 limits assumed): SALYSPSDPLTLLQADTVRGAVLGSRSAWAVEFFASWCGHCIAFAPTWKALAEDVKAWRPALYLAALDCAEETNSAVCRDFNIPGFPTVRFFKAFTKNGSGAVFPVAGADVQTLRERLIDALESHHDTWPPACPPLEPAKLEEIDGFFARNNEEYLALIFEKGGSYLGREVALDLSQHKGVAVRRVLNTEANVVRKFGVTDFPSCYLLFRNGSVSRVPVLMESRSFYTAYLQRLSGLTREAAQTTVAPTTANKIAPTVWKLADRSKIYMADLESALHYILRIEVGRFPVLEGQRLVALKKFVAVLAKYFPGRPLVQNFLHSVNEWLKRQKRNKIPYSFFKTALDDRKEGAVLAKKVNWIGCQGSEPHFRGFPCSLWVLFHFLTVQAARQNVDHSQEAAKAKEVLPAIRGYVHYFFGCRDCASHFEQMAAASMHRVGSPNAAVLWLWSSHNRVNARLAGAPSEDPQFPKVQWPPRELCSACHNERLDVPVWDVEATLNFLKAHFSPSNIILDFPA

MmQSOX1 = target: T4, MmQSOX1 (Mus musculus, UniProt Q8BND5); experiment: Colorimetric assay of RNase A oxidation; format: biochemical; settings: 150 or 25 nM MmQSOX1; free thiols, absorbance at 412 nm
T4 construct: Recombinant MmQSOX1 is truncated at the carboxy-terminus and so migrates faster than endogenous secreted MmQSOX1; made in house
T4 sequence (Q8BND5 36-550 limits assumed): T2 sequence (Q8BND5 36-550 limits assumed)
Method: Colorimetric assays of RNase A oxidation were performed as described previously to obtain IC50 values [Grossman I. et al. (2013), supra]. Ki values were obtained in oxygen consumption assays as previously described [Grossman I. et al. (2013), supra].
MmQSOX1 inhibition by MAb492gen was next quantified and compared to inhibition by the natural antibody MAb316.1. In one assay, MmQSOX1 activity was measured by the number of free thiols remaining at the end of the oxidation reaction of denatured and reduced RNase A. Various MAb492gen concentrations were scanned against two MmQSOX1 concentrations. […] In a second assay MmQSOX1 catalytic activity on DTT was measured using the oxygen consumption assay, providing data that were fitted to a model of tight-binding inhibition [Bieth, J. G. (1995) Methods Enzymol.

B1: MAb316.1: murine IgG1 monoclonal antibody targeting MmQSOX1, variable regions SEQ ID NOs: 9 and 10, CDRs SEQ ID NOs: 26-31 (antibody, V domains shown)
VL: QIVLTQSPAIMSASPGEKVTISCSASSSVSYMYWYHQKPGSSPKPWIYRTSNLASGVPARFSGSGSGTSYSLTISSMEAEDAATYYCQQYHSYPLTFGAGTKLELK
VH: QVQLQQSGPELVKPGASVKISCKASGYSFTSYYIHWVKQRPGQGLEWIGWIYPGSYNTEYSEKFKGKATLTADTSSSTAYMQLSSLTSEDSAVYYCARSEDWFAYWGQGTLVTVS
modifications: MAb316.1 variable region - light chain; MAb316.1 variable region - heavy chain
MmQSOX1 Trx module
  Elution shift / binding of MmQSOX1 Trx module: shifted the elution; also recorded: binds the Trx module
full-length MmQSOX1
  Elution shift of full-length MmQSOX1 when mixed with antibody: shifted the elution

B2: MAb492.1: previously published inhibitory monoclonal antibody blocking the Trx CXXC redox-active site of human QSOX1 (antibody, V domains shown)
VL: DVVMTQTHKFMSTSVGDRVSITCKASQDVSTAVAWYQQKSGQSPKLLIHSASYRYTGVPDRFTGSGSGTDFTFTISSVQAEDLAVYYCQQHYSIPLTFGAGTKLELK
VH: QVQLKQSGPGLVAPSQSLSITCTVSGFSLTGYGVNWVRQSPGKGLEWLGMIWGDGRTDYKSALKSRLSITKDNSKSQVFLKMNSLQTDDTARYFCASDYYGSGSFAYWGQGTLVTVSA
HsQSOX1
  Ki: 900 ± 100 pM

B3: MAb492gen: recombinant full-length antibody based on scFv492gen, CDRs SEQ ID NOs: 46-51, cross-reactive to human and mouse QSOX1 (antibody, V domains shown)
VL: B2 VL with T31G, H49S, S50M, Y53Q, S93A
VH: B2 VH with G33S, N35I, D58E, Y99S, Y100M, G101D, S102P
MmQSOX1
  IC50, RNase A oxidation: close to the MmQSOX1 concentration

Positions count from the first letter of the chain named. Entries after “also recorded” stand apart in the source; their conditions may differ.
